From US20220306603A1, “TARGETING DNA REPAIR IN TUMOR CELLS VIA INHIBITION OF ERCC1-XPF” (The Governors of the University of Alberta, priority 2019, published 2022)

Protein sequences, listed by entry. Tags and fused reporters are not part of them.
UniProt Q92889, whole entry: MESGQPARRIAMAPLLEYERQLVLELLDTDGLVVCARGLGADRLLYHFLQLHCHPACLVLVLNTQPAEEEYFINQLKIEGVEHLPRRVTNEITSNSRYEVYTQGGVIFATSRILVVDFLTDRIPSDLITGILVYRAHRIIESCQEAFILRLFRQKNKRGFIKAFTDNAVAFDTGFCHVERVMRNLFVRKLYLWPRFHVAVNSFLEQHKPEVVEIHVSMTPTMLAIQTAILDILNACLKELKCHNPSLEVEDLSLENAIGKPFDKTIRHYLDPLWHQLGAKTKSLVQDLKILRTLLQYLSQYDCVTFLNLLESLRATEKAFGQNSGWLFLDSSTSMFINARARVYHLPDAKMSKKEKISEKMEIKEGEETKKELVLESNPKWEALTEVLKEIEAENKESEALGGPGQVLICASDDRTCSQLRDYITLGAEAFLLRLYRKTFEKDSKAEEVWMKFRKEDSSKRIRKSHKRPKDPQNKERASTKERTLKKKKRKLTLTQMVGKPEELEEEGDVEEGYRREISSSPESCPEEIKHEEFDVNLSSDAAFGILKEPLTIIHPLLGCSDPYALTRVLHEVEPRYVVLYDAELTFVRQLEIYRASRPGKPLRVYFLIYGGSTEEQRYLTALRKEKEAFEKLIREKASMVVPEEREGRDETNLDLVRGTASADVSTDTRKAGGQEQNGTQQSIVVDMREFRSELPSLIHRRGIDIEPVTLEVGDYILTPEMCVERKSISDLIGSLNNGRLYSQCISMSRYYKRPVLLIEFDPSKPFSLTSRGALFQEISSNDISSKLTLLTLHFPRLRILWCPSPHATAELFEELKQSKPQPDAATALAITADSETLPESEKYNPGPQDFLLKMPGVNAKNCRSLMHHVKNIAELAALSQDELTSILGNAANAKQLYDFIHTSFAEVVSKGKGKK

Target: ERCC1-XPF (Homo sapiens, UniProt Q92889)
Assay: Microplate fluorescence incision assay of ERCC1-XPF endonuclease activity
Format: biochemical
Conditions: Table 7; at least three experiments of Vo versus concentration

IC50: 396 nM
SMILES: COc1ccc2nc3cc(Cl)ccc3c(Nc3ccc(O)c(CN4CCN(CCN(C)C)CC4)c3)c2n1
